According to patent US7964616B2, “Compounds 679” (AstraZeneca AB, priority 2007, dated 2011):
Read-outs that look alike come from different tables or passages of the source.

Amino acid sequences for entries named in this document (tags omitted).
UniProt Q99572, whole entry: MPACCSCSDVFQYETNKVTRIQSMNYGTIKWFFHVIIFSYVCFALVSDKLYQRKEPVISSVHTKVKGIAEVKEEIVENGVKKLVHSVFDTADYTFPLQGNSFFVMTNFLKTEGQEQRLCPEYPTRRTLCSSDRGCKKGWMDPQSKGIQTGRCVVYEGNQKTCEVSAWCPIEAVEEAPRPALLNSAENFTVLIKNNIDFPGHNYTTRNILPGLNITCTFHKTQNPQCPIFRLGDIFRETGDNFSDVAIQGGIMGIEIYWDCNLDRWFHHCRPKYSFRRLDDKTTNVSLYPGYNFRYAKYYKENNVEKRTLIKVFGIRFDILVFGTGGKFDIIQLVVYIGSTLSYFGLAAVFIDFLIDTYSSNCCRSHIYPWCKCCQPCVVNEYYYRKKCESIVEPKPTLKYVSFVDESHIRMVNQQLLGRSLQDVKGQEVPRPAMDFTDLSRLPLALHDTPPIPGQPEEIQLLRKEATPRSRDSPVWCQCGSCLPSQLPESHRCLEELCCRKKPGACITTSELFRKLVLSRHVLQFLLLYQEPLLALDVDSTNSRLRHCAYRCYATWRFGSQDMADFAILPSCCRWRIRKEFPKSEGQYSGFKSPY
UniProt Q12809, whole entry: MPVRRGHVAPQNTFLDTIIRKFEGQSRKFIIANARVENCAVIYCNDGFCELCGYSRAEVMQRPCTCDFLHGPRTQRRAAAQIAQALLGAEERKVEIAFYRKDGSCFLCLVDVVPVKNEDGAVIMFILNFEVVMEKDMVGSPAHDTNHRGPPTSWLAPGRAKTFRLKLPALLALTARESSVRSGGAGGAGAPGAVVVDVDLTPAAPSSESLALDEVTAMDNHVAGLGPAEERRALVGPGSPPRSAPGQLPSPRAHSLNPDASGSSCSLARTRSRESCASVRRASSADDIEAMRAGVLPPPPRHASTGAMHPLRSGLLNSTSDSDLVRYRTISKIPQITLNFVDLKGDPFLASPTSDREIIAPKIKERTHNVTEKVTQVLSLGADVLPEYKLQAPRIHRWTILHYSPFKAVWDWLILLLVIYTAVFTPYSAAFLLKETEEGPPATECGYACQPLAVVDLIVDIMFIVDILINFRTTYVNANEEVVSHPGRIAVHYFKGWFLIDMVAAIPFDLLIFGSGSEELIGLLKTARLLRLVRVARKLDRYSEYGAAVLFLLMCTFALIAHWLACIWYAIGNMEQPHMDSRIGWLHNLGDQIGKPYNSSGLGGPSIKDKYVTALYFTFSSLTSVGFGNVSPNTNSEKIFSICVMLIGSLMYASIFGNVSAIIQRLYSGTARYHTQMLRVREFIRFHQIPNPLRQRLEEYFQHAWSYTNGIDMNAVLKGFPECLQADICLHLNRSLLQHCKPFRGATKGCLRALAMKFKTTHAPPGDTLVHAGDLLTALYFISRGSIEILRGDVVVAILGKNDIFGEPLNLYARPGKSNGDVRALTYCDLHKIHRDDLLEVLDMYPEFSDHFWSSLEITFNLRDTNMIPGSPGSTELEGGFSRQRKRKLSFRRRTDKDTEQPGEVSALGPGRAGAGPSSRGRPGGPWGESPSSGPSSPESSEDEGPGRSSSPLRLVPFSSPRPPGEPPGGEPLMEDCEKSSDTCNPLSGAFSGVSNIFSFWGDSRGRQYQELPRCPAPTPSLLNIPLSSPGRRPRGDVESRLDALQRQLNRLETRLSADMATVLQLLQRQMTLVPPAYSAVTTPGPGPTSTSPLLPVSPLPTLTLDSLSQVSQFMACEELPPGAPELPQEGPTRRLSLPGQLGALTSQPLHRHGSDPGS

Columns and labels:
P2X7 receptor = P2X7 receptor (Homo sapiens, UniProt Q99572); test: P2X7 assay (bbATP-induced ethidium bromide fluorescence in THP-1 cells); details: for P2X7 pIC50: 10^-5M bbATP agonist, ethidium bromide fluorescence
Excerpt: Certain compounds such as benzoylbenzoyl adenosine triphosphate (bbATP) are known to be agonists of the P2X7 receptor, effecting the formation of pores in the plasma membrane (Drug Development Research (1996), 37(3), p. 126). Consequently, when the receptor is activated using bbATP in the presence of ethidium bromide (a fluorescent DNA probe), an increase in the fluorescence of intracellular DNA-bound ethidium bromide is observed. The increase in fluorescence can be used as a measure of P2X7 receptor activation and therefore to quantify the effect of a compound on the P2X7 receptor.
In this manner, each of the title compounds of the Examples was tested for antagonist activity at the P2X7 receptor. Thus, the test was performed in 96-well flat bottomed microtitre plates, the wells being filled with 250 μl of test solution comprising 200 μl of a suspension of THP-1 cells (2.5×10^6 cells/ml) containing 10^−4M ethidium bromide, 25 μl of a high potassium buffer solution containing 10^−5M bbATP, and 25 μl of the high potassium buffer solution containing concentrations of test compound typically from 30 μM-0.001 μM. The plate was covered with a plastics sheet and incubated at 37° C. for one hour. The plate was then read in a Perkin-Elmer fluorescent plate reader, excitation 520 nm, emission 595 nm, slit widths: Ex 15 nm, Em 20 nm. For the purposes of comparison, bbATP (a P2X7 receptor agonist) and pyridoxal 5-phosphate (a P2X7 receptor antagonist) were used separately in the test as controls. From the readings obtained, a pIC50 figure was calculated for each test compound, this figure being the negative logarithm of the concentration of test compound necessary to reduce the bbATP agonist activity by 50%.

[1] = target: ion channel subunit encoded by the human ether-a-go-go-related gene (hERG) (Homo sapiens, UniProt Q12809); test: hERG binding protocol (radioligand competition, HEK cell membranes expressing hERG); details: for hERG pIC50: a 'less than' figure indicates <50% inhibition at the quoted concentration, the highest tested; for P2X7:hERG Ratio: ratio of P2X7:hERG affinity; for IC50: read-out: hERG IC50, radioligand binding, HEK membranes expressing hERG
Procedure: The hERG assay was performed according to the procedure described in WO2005/037052. The affinity (pIC50) of compounds for the ion channel subunit encoded by the human ether-a-go-go-related gene (hERG) gene was determined by competition binding of radioligand 3,7-Bis[2-(4-nitro[3,5-^3H]phenyl)ethyl]-3,7-diazabicyclo[3.3.1]nonane to HEK (human embryonic kidney) cell membranes expressing hERG, in a filter wash format.
Membranes were incubated for 3 hours at room temperature with serial dilutions of the test compounds, radioligand 3,7-Bis[2-(4-nitro[3,5-^3H]phenyl)ethyl]-3,7-diazabicyclo[3.3.1]nonane at 1 nM final concentration, and assay buffer (10 mM HEPES, 130 mM NaCl, 5 mM KCl, 1 mM EGTA, 0.8 mM MgCl2, pH 7.4). The assay was conducted in a final volume of 200 μL, in the presence of 1% (v/v) dimethyl sulphoxide. Non-specific binding was determined by measuring the binding of 3,7-Bis[2-(4-nitro[3,5-^3H]phenyl)ethyl]-3,7-diazabicyclo[3.3.1]nonane in the presence of 10 […]. During this incubation GF/B filter plates were immersed in coating solution 0.3% (v/v) Polyethylenimine and 0.2% (w/v) BSA). Following incubation assay plates were harvested onto precoated GF/B filter plates using a Tomtec harvester.
The pIC50, defined as the negative logarithm of the concentration of compound required for 50% reduction in 3,7-Bis[2-(4-nitro[3,5-^3H]phenyl)ethyl]-3,7-diazabicyclo[3.3.1]nonane binding, was determined. A ‘less than’ figure indicates <50% inhibition at the quoted concentration, this being the highest concentration tested.

[2] = read-out: P2X7 IC50, bbATP agonist

| Structure (SMILES) | P2X7 pIC50 (P2X7 receptor; tested form: HCl) | IC50 (P2X7 receptor; read-out: P2X7 IC50, bbATP agonist, tested form: HCl) | hERG pIC50 ([1]; tested form: HCl) | P2X7:hERG Ratio ([1]; tested form: HCl) | IC50 ([1]; tested form: HCl) | P2X7 pIC50 (P2X7 receptor) | IC50 (P2X7 receptor; [2]) | hERG pIC50 [1] | P2X7:hERG Ratio [1] | IC50 [1] |
| --- | --- | --- | --- | --- | --- | --- | --- | --- | --- | --- |
| O=C(NCC1CCCCC1)c1c(Cl)ccc2nc(N3CC[C@H](NCCO)C3)ccc12 | 7.5 | 0.032 µM | 4.9 | 398 | 13 µM |  |  |  |  |  |
| O=C(CC1CCCCC1)Nc1c(Cl)ccc2nc(N3CC[C@H](O)C3)ccc12 |  |  |  |  |  | 7.2 | 0.063 µM | 4.5 | 502 | 32 µM |
| N[C@H]1CCN(c2ccc3c(C(=O)NCC4CCCCC4)c(Cl)ccc3n2)C1 |  |  |  |  |  | 7.9 | 0.013 µM | 4.9 | 1000 | 13 µM |
| O=C(CC1CCCCC1)Nc1c(Cl)ccc2nc(N3CC[C@H](NCCO)C3)ccc12 |  |  |  |  |  | 8.2 | 0.006 µM | 5.1 | 1258 | 8 µM |
